Laboratory results published in PMC3687523 (Biochemical pharmacology, 2013).

Test system: Male adult Wistar rats
Conditions: 30 mg/kg s.c. codeine with i.c.v. cyclodextrin; n=12

COc1ccc2c3c1O[C@H]1[C@@H](O)C=C[C@H]4[C@@H](C2)N(C)CC[C@@]341 [codeine]
0-120 min AUC of analgesia (mean+SEM): 7748+1057 %MPE*min
